In ChEMBL document CHEMBL3120046, “Bis(ammonio)alkane-type agonists of muscarinic acetylcholine receptors: synthesis, in vitro functional characterization, and in vivo evaluation of their analgesic activity” (Eur J Med Chem, 2014):

Key:
[1] = target: Muscarinic receptor 2 (Cavia porcellus) (UniProt Q8VH27); assay: Intrinsic activity at muscarinic M2 receptor in albino guinea pig left atrium assessed as […] of electrically-induced response relative to bethanechol; conditions: Cardiac atrium
In short: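 Cumulative agonist concentration-response curves (1 nM–30 µM) in isolated tissue, Krebs-Henseleit, carbogen, 37 °C, 1 g tension, isometric contraction. Curves repeated with atropine 0.1 µM and hexamethonium 100 µM. Mean ± SEM of 6–8 experiments.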

[2] = test system: Muscarinic acetylcholine receptor M3 (Cavia porcellus); assay: Intrinsic activity at muscarinic M3 receptor in albino guinea pig ileum assessed as stimulation of electrically-induced response relative to bethanechol
[3] = test system: Muscarinic acetylcholine receptor M3 (Cavia porcellus); assay: Antagonist activity at muscarinic M3 receptor in albino guinea pig ileum assessed as inhibition of electrically-induced response

| Structure (SMILES) | Intrinsic activity [1] | Intrinsic activity [2] | pKb [3] |
| --- | --- | --- | --- |
| CC(C)(CN1C(=O)c2cccc3cccc(c23)C1=O)C[N+](C)(C)CCCCCC[N+](C)(C)CCCN1C(=O)c2ccccc2C1=O | 0 | 0 | 5.49 |
| C[N+](C)(C)CC#CCOC1=NOCC1 | 1 |  |  |
